Laboratory results published in US9410197B2, “Compound for sequencing by synthesis” (Roche Diagnostics Operations, Inc., priority 2013, dated 2016).

Target: Therminator II DNA polymerase (Thermococcus sp., UniProt Q56366, A485L/D141A/E143A/Y409V)

**Q.** For “MR121-labelled 3′-O-Nitro-2′-deoxy-β-D-uridine triphosphate”, which “incorporation by Therminator II DNA polymerase” value (depending on the triphosphate concentration) is on record?
**A.** The value was “incorporated efficiently”.

**Q.** And the “primer + dNTP MWfound” value (incorporation product, MWcalcd 5882.4, c(dNTP) 33.3 μM, PPiase Yes, 10 min, 62° C.)?
**A.** The value was 5881.8 DA.

**Q.** And the “acceptance as substrate by Therminator II DNA polymerase” value (primer extension, 62° C.)?
**A.** The value was “accepted as substrates”.

**Q.** And the “primer MWfound” value (unextended primer, MWcalcd 4759.2, c(dNTP) 33.3 μM, PPiase Yes, 10 min, 62° C.)?
**A.** The value was 4758.4 DA.
